Test results from patent publication US20250145566A1, “PHENETHYLAMINE DERIVATIVES, COMPOSITIONS, AND METHODS OF USE” (Cybin IRL Limited, priority 2022, published 2025).

Chains of the proteins cited; added tags and fusions are not shown. Residues count along the entry.
UniProt P28335, 33-458: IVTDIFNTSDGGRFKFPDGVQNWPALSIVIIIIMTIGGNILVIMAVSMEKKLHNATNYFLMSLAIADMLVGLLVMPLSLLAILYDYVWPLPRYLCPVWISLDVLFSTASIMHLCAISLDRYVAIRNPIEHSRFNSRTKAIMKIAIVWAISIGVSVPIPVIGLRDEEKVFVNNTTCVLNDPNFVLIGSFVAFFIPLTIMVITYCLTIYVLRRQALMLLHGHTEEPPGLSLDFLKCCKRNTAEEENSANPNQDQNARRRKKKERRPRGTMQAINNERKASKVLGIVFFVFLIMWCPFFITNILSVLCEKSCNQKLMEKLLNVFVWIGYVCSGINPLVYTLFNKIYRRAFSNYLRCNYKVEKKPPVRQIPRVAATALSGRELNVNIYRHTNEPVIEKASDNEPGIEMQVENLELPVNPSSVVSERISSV
UniProt P23975, whole entry: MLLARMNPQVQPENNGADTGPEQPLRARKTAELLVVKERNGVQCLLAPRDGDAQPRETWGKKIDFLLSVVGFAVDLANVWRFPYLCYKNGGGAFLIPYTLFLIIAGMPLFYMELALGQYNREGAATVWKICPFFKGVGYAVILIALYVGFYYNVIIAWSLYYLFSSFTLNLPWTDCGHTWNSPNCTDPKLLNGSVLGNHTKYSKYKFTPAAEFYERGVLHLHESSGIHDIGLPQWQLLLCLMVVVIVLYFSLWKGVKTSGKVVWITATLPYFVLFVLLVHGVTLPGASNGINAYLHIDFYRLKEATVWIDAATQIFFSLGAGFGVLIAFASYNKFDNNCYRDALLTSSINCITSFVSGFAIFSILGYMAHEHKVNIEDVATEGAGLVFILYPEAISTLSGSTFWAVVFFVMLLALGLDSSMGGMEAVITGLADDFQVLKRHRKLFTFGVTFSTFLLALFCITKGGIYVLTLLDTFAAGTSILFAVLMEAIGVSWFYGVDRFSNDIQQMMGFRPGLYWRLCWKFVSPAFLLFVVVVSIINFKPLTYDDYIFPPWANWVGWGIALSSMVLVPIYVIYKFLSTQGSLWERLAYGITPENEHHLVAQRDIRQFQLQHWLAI

What was measured:
[1] = target: T1, 5-HT2C (h) (Homo sapiens, UniProt P28335); conditions: read-out: Binding 5-HT2C Ki; antagonist radioligand; literature, racemic; cited from earlier work
T1 construct: expressed in transfected cells; host or cells: HEK-293 cells

[2] = target: T1, 5-HT2C (h); conditions: literature, single enantiomers; read-out: Function 5-HT2C EC50; cited from earlier work
[3] = target: T2, norepinephrine transporter (h) (Homo sapiens, UniProt P23975); test: norepinephrine transporter (h) binding, [3H]nisoxetine; conditions: Hill coefficient; reference compound result
T2 construct: expressed in transfected cells; host or cells: CHO cells

CNC(C)Cc1ccc2c(c1)OCO2 (stereo not shown) [MDMA, 3,4-methylenedioxymethamphetamine]
pKi [1]: < 5.00

CN[C@@H](C)Cc1ccc2c(c1)OCO2 [S-MDMA]
pEC50 [2]: 5.59

CNCCCC1c2ccccc2C=Cc2ccccc21 [protriptyline, reference compound]
nH [3]: 1.1

CN[C@H](C)Cc1ccc2c(c1)OCO2 [R-MDMA]
pEC50 [2]: 5.27

pEC50, pKi: −log10 of the molar value.
